Source: patent US9388140B2, “Substituted benzimidazoles” (priority 2011, dated 2016)

Chains of the proteins cited; added tags and fusions are not shown. Lines headed by an entry give the natural chain unless they say otherwise; changes in a name come on top.
UniProt P33981: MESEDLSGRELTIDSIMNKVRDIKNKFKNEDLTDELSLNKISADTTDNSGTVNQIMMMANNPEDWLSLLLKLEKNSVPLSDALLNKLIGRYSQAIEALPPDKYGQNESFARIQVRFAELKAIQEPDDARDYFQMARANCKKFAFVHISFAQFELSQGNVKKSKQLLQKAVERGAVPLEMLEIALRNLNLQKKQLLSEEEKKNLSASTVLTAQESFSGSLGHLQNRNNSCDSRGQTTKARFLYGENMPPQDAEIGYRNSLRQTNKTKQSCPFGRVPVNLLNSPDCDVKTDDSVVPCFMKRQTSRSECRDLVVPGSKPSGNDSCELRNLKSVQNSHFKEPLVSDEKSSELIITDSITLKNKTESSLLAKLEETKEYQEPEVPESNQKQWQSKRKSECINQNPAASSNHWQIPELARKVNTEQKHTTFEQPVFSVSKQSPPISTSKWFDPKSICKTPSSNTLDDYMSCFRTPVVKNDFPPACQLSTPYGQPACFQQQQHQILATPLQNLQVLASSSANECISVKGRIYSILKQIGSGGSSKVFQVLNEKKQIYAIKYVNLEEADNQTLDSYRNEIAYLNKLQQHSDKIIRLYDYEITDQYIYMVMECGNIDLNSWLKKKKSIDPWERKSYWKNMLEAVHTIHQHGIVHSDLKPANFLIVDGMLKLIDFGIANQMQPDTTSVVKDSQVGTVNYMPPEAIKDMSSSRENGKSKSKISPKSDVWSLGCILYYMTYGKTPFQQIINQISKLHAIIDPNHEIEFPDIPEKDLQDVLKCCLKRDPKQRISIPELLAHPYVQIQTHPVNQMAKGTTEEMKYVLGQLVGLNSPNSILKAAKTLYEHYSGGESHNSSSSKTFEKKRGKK

Target: human kinase Mps-1 (Homo sapiens (Human), UniProt P33981)
Experiment: Mps-1 kinase assay (TR-FRET)
Format: biochemical
Settings: N-terminally GST-tagged human full length recombinant Mps-1; 10 μM ATP; 1 μM biotinylated peptide substrate; read-out: Mps1 IC50
Protocol: The human kinase Mps-1 phosphorylates a biotinylated substrate peptide. Detection of the phosphorylated product is achieved by time-resolved fluorescence resonance energy transfer (TR-FRET) from Europium-labelled anti-phospho-Serine/Threonine antibody as donor to streptavidin labelled with cross-linked allophycocyanin (SA-XLent) as acceptor. Compounds are tested for their inhibition of the kinase activity.
N-terminally GST-tagged human full length recombinant Mps-1 kinase (purchased from Invitrogen, Karslruhe, Germany, cat. no PV4071) was used. As substrate for the kinase reaction a biotinylated peptide of the amino-acid sequence […] (C-terminus in amide form, purchased from Biosynthan GmbH, Berlin) was used. […]
The resulting mixture was incubated 1 h at 22° C. to allow the binding of the phosphorylated peptide to the anti-phospho(Ser/Thr)-Europium-antibody. Subsequently the amount of phosphorylated substrate was evaluated by measurement of the resonance energy transfer from the Europium-labelled anti-phospho(Ser/Thr) antibody to the Streptavidin-XLent. Therefore, the fluorescence emissions at 620 nm and 665 nm after excitation at 350 nm was measured in a Viewlux TR-FRET reader (PerkinElmer LAS, Rodgau-Jügesheinn, Germany). […]

## COc1ccc(C(C)(O)c2cc(NCCC(F)(F)F)c3ncn(-c4ccc(C(=O)NC5CC5)c(CO)c4)c3c2)cc1F (racemic) [Example 103B, N-cyclopropyl-4-{6-[(1RS)-1-(3-fluoro-4-methoxyphenyl)-1-hydroxyethyl]-4-[(3,3,3-trifluoropropyl)amino]-1H-benzimidazol-1-yl}-2-(hydroxymethyl)benzamide]
  IC50: 24.2 nM
